Values of other authors in patent publication US12211592B2.

The chains behind the UniProt entries cited, without tags or fusion partners.
UniProt P50750, whole entry: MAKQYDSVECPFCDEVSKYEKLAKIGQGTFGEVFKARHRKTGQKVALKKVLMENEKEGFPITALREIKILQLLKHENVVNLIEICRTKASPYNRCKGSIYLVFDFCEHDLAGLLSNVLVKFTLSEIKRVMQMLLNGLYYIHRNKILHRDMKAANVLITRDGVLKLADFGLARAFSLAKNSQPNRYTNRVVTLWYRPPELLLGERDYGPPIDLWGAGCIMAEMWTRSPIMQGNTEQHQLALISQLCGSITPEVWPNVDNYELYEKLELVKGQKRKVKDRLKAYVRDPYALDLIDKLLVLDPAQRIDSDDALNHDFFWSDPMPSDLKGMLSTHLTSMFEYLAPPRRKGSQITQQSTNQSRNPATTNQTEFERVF
UniProt O60563, whole entry partner: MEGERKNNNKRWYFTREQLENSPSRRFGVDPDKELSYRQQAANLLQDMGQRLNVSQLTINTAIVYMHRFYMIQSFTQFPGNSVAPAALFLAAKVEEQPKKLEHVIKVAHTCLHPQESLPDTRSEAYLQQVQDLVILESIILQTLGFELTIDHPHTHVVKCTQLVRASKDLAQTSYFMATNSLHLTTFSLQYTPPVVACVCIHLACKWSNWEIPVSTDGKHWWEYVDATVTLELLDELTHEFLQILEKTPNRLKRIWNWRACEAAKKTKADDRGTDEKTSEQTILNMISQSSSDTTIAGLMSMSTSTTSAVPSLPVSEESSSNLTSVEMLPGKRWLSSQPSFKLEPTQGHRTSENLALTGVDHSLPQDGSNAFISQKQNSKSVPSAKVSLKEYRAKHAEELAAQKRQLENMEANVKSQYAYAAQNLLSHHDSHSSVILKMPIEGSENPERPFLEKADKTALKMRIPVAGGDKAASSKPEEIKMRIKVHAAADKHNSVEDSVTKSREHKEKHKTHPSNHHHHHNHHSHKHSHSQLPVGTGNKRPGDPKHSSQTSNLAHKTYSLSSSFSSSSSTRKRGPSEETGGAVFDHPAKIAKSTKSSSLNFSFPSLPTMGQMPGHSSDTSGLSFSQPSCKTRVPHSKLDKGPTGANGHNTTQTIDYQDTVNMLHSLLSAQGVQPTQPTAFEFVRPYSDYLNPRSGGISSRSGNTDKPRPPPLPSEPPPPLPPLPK

What was measured:
[1] = qualitative statement, proven in vivo
CDK9 = CDK9 (Homo sapiens, UniProt P50750); details: qualitative statement

SMILES | oral bioavailability [1] | CDK9 subtype selectivity (CDK9) | ligand efficiency (CDK9)
CN1CCC(c2c(O)cc(O)c3c(=O)cc(/C=C/c4c(Cl)cccc4Cl)oc23)C(O)C1 (stereo not shown) | oral bioavailability | subtype selective CDK9 inhibitor activity | –
COc1ccccc1-c1cc(Nc2ccccn2)ncn1 | – | subtype selective CDK9 inhibitor activity | good ligand efficiency
